# Only a part is listed here, and it is no random draw. Results filed as inconclusive are left out. The source made the active and inactive calls. Calls come from the whole dose curve; as a rule, active = well fitted inhibition curve with a large enough effect; inconclusive = small, poorly fitted or top-dose-only effect, or effect the other way; inactive = flat fitted curve, though single readings scatter.
# Assay: VP16 counterscreen qHTS for inhibitors of ROR gamma transcriptional activity;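 note: Gal4-VP16 expression switched on by copper sulfate through the metallothionein promoter; nearly all actives have a fitted effect of over 50% in size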
# Conditions: Drosophila S2 Gal4-VP16 UAS-luciferase, luminescence, 20 h; series mostly up to 53.6 µM; activity, negative = inhibition: at the top concentration
# % is set by controls: 0 for no effect and ±100 for the full control effect; potency is the fitted concentration of half-maximal effect.
Compound,"activity, negative = inhibition",Potency
COc1ccccc1OP(=O)(Nc1ccc(C)cn1)Oc1ccccc1OC,inactive: 6.53%,–
Cc1ccc(OP(=O)(Nc2nccs2)Oc2ccc(C)cc2)cc1,inactive: -9.45%,–
Cc1ccc(N/C(=N/P(=O)(N2CCOCC2)N2CCOCC2)N2CCOCC2)cc1,inactive: 1.46%,–
NC(=O)c1cc([N+](=O)[O-])cc([N+](=O)[O-])c1N,inactive: -19.6%,–
Oc1ccccc1CNc1ccccn1,inactive: -1.62%,–
Cc1c2non([O-])c-2c(C)[n+](=O)[n+]1[O-],–,active: 28.2 µM
Nc1cc(N)c2nonc2c1[N+](=O)[O-],inactive: -0.311%,–
CC(C)CC(=O)NC(Sc1ccc(Cl)cc1)C(Cl)(Cl)Cl (stereo not given),inactive: 0.742%,–
CCOP(=O)(Nc1ccccc1)OCC,–,inactive
CN(C(=O)Cc1ccc(Cl)c(Cl)c1)[C@H]1CCCC[C@@H]1N1CCCC1,–,inactive
Cc1ccc(NP(=O)(Oc2ccccc2F)Oc2ccccc2F)nc1,inactive: -6.61%,–
O=P(Nc1nc2ccc(Cl)cc2s1)(c1ccccc1)c1ccccc1,inactive: 3.5%,–
CC(=O)Nc1ccc([As](=O)(O)O)cc1,inactive: -2.6%,–
O=C(O)c1ccccc1[As](=O)(O)O,inactive: 3.09%,–
Nc1cccc2ccc([As](=O)(O)O)cc12,inactive: -0.232%,–
CCN(N=Nc1nonc1N)c1nonc1N,inactive: -22.5%,–
O=C(Nc1cc([As](=O)(O)O)ccc1O)c1ccccc1,inactive: -12.9%,–
O=C(O)CNc1ccc([As](=O)(O)O)cc1,inactive: -8.69%,–
O=[N+]([O-])c1cccc(NC2=NCC(CBr)S2)c1 (stereo not given),inactive: 1.13%,–
O=[N+]([O-])c1ncn(CCn2ncnc2[N+](=O)[O-])n1,inactive: -12.5%,–
CC(C)(C)C(=O)NC(Sc1ccncn1)C(Cl)(Cl)Cl (stereo not given),inactive: -9.27%,–
Cc1ccc(NP(=O)(Oc2ccccc2)Oc2ccccc2)nc1,inactive: -18.4%,–

Compound,"activity, negative = inhibition",Potency
O=[N+]([O-])c1cc([N+](=O)[O-])c(CCNc2ccccc2)c([N+](=O)[O-])c1,inactive: -29.5%,–
CC(=O)N1C2C3N(C(C)=O)C1C1N(C(C)=O)C(C(N1C(C)=O)N3C(C)=O)N2C(C)=O,inactive: -3.62%,–
O=[N+]([O-])c1cccc2n[nH]nc12,inactive: 22.8%,–
COc1ccc(C2=NCC(CBr)S2)cc1 (stereo not given),inactive: 11.2%,–
CC(=O)C1=CCCC2CCC1N2 (stereo not given),inactive: -14.2%,–
CC1CCN(C(=O)Oc2c(Cl)cc(Cl)c3cccnc23)CC1,inactive: -3.13%,–
CC(C)=N/N=C(\N)N[N+](=O)[O-],inactive: 1.61%,–
CCN(/C(=N/P(=O)(N1CCOCC1)N1CCOCC1)N1CCOCC1)c1ccc(OC)cc1,inactive: 3.6%,–
Nc1ccc([As](=O)(O)c2ccc(N)cc2)cc1,inactive: -4.42%,–
c1nnnn1CCn1cnnn1,inactive: 1.85%,–
O=P(Nc1nccs1)(c1ccccc1)c1ccccc1,inactive: 11.7%,–
CC(C)C(=O)NC(Sc1ccccc1)C(Cl)(Cl)Cl (stereo not given),inactive: -0.572%,–
CN(C(=O)Cc1ccccc1)[C@H]1CC[C@@]2(CCCO2)C[C@@H]1N1CCCC1,inactive: -0.45%,–
O=P(Nc1nc2ccccc2s1)(c1ccccc1)c1ccccc1,inactive: -3.6%,–
C[C@H]1OP(=O)(Oc2ccccc2)[C@H](O)[C@H](O)[C@H]1N=[N+]=[N-] (stereo not given in full),inactive: 10%,–
CN(C)C1(CNC(=O)c2ccc(Cl)c(S(N)(=O)=O)c2)CCCCC1,inactive: 0.392%,–
O=P(Nc1ccccn1)(c1ccc(Br)cc1)c1ccc(Br)cc1,inactive: 7.35% [at 10 µM],–
O=C(OC1CN2CCC1CC2)c1cccc(Cl)c1 (stereo not given),inactive: -2.16%,–
C(Cc1nn[nH]n1)Cc1nn[nH]n1,inactive: 4.79%,–
Nc1ccc([As](=O)(O)c2ccc([N+](=O)[O-])cc2)cc1,inactive: 2.68%,–
O=[As](O)(c1ccccc1)c1ccc(O)cc1,inactive: -7.33%,–
O=[N+]([O-])c1ncn(CCn2cnc([N+](=O)[O-])n2)n1,inactive: -6.51%,–

Compound,"activity, negative = inhibition",Potency
O=[N+]([O-])c1ccc(O)c(/C=N/Nc2ccc([N+](=O)[O-])cc2[N+](=O)[O-])c1,–,active: 3.55 µM
c1ccc(-c2nn[nH]n2)c(-c2nn[nH]n2)c1,inactive: -3.28%,–
CCOC(=O)NC(Sc1ccccc1)C(Cl)(Cl)Cl (stereo not given),inactive: -4.93%,–
Cc1ccc(NP(=O)(Oc2cccc(C)c2)Oc2cccc(C)c2)nc1,inactive: -1.88%,–
O=C(NC1CCS(=O)(=O)C1)NP(=S)(Oc1ccccc1)Oc1ccccc1 (stereo not given),inactive: 9.47%,–
CCNC(=S)/N=C(\N)N[N+](=O)[O-],inactive: -9.11% [at 10 µM],–
Cc1ccccc1OP(=O)(Nc1ccccn1)Oc1ccccc1C,inactive: -5.1%,–
O=c1c2cc([N+](=O)[O-])ccc2[nH]c2c([N+](=O)[O-])cc([N+](=O)[O-])cc12,–,active: 0.141 µM
CN(C)C(=O)Oc1noc2ccccc12,inactive: 2.27%,–
O=C(OC1CN2CCC1CC2)c1ccccc1 (stereo not given),–,inactive
CCC(=O)N1C2C3N(C(=O)CC)C1C1N(C(=O)CC)C(C(N1C(=O)CC)N3C(=O)CC)N2C(=O)CC,inactive: -0.446%,–
COC(=O)c1cc2c(s1)N=C(c1ccccc1)N(C)P2(=O)N1CCOCC1 (stereo not given),inactive: -6.48%,–
Cc1ccc(OP(=O)(Nc2ccccn2)Oc2ccc(C)cc2)cc1,inactive: -2.24%,–
CC(=O)NC(SC(=S)N(CC(C)C)CC(C)C)C(Cl)(Cl)Cl (stereo not given),inactive: -13.7%,–
CC(C)(C)C(=O)NC(Sc1ccccc1)C(Cl)(Cl)Cl (stereo not given),inactive: -0.941%,–
O=P1(Nc2nc3ccc(Cl)cc3s2)COc2ccccc2O1 (stereo not given),inactive: 0.464%,–
CC(=O)Nc1ccc([As](=O)(O)O)c(O)c1,inactive: 1.52%,–
CC(=O)Nc1ccc(Oc2c([N+](=O)[O-])cc([N+](=O)[O-])cc2[N+](=O)[O-])cc1,inactive: 1.35%,–
C[C@H]1OP(=O)(Oc2ccccc2)C[C@@H]2O[C@@H]21 (stereo not given in full),inactive: -0.459%,–
C[C@@H]1C=CCP(=O)(Oc2ccccc2)O1 (stereo not given in full),inactive: -11.2%,–
CC(=O)c1ccc(N2CC2c2ccncc2)cc1 (stereo not given),inactive: 8.35%,–

# — PubChem BioAssay AID2546 (National Center for Advancing Translational Sciences (NCATS), 2010)
